## Ab-91 heavy chain CDR variants: yeast mating affinities

All variants were tested on one target, the spike HR2 peptide PDVDLGDISGINAS (SARS-CoV-2).

The variants keep the light chain, the linker and the frameworks of Ab-91 (scFv order VL, the linker GGGGSGGGGSGGGGS, VH).
VL: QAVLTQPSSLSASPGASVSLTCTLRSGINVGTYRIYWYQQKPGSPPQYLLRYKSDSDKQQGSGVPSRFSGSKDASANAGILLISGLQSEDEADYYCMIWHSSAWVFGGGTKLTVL
VH: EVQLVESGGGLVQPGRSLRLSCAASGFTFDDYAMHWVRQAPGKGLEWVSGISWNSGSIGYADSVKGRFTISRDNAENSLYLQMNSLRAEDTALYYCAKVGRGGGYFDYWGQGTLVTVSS

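The starting antibody came from a phage panning campaign against this peptide. Library AAYL51 holds single substitutions and randomly drawn double and triple substitutions in the CDRs. AlphaSeq pools MATa yeast showing the antibodies with MATalpha yeast showing the peptide. Pairs that bind mate more often; barcode pairs of the diploids are counted by sequencing. Read counts were normalised to the haploid input and turned into Kd by a linear fit to BCL2-family pairs of known affinity, for each replicate. Mating was done three times.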

Changes read parent residue, position, new residue, counted from the first residue of the VH shown.
All variants listed here change G103 of the VH, counted from its first residue.
Numbers give log10(Kd / nM), so 0 is 1 nM and 3 is 1 µM. Smaller is tighter.
Replicates are averaged; those with no signal do not enter the mean.
"nd" marks a missing value. The strain was present, yet no cells mated with the target were sequenced in any replicate, which points to weak or no binding.
Nonspecific signal, from three strains lacking the peptide, appeared in 21% of pairings of library AAYL51, centred on 4.54 (5% of these signals below 3.26); values are not corrected for it.

- F27R K65H G103I: 5.94 (2 of 3 replicates)
- G26P I58T G103V: 3.55 (1 of 3 replicates)
- D30L Y32S G103M: 3.97 (1 of 3 replicates)
- M34H I51N G103I: 3.90 (2 of 3 replicates)
- F27G Y32W G103K: 1.67 (3 of 3 replicates)
- G50W D62G G103V: 3.75 (1 of 3 replicates)
- G103A Y105M: 4.34 (2 of 3 replicates)
- I51R S57D G103W: 5.42 (1 of 3 replicates)
- S52R G103W F106A: 4.99 (2 of 3 replicates)
- T28W G103W: 5.55 (1 of 3 replicates)
- F29P A33F G103Q: nd (0 of 3 replicates)
- I58W G100R G103M: nd (0 of 3 replicates)
- Y60T G102I G103V: 4.38 (2 of 3 replicates)
- V99D G103D G104D: 3.75 (2 of 3 replicates)
- F29N D62A G103Q: 5.05 (1 of 3 replicates)
- H35K S63P G103N: 5.09 (2 of 3 replicates)
- A61I G102V G103Y: 1.77 (3 of 3 replicates)
- G103L Y105L: nd (0 of 3 replicates)
- H35I S52P G103F: 4.73 (1 of 3 replicates)
- D30K Y60E G103N: 5.14 (1 of 3 replicates)
- F29C Y60A G103T: 4.06 (1 of 3 replicates)
- I51F V64N G103L: 5.43 (2 of 3 replicates)
- V64C K65T G103P: nd (0 of 3 replicates)
- F29M S55E G103Q: 1.85 (3 of 3 replicates)
- V64P G103Q: nd (0 of 3 replicates)
- Y32I V64K G103K: nd (0 of 3 replicates)
- M34E W53V G103P: nd (0 of 3 replicates)
- D30L V64G G103C: 4.96 (2 of 3 replicates)
- G103C G104M Y105T: 3.33 (3 of 3 replicates)
- S57E G103T: 2.34 (2 of 3 replicates)
- G103V: 0.99 (3 of 3 replicates)
- S57K R101T G103E: 5.30 (2 of 3 replicates)
- I58V K65A G103F: 3.79 (1 of 3 replicates)
- T28W A33V G103V: 4.33 (1 of 3 replicates)
- H35I S63W G103N: nd (0 of 3 replicates)
- V64F G103K Y108T: nd (0 of 3 replicates)
- R101S G103C: 3.81 (1 of 3 replicates)
- F27A Y60E G103W: 3.50 (1 of 3 replicates)
- Y32F K65H G103M: 3.69 (1 of 3 replicates)
- N54Y G59N G103T: 4.28 (2 of 3 replicates)
- G103M F106C Y108K: 4.08 (1 of 3 replicates)
- Y60G G103E G104L: nd (0 of 3 replicates)
- T28P G100V G103K: nd (0 of 3 replicates)
- V99I G100Q G103Y: 4.85 (2 of 3 replicates)
- S57K I58E G103D: nd (0 of 3 replicates)
- I58P G103S D107P: nd (0 of 3 replicates)
- G50Q K65N G103Y: nd (0 of 3 replicates)

The measurements come from Engelhart et al. 2022 (doi:10.1038/s41597-022-01779-4) through the FLAb antibody collection.